Source: patent US7326422B2, “Dissolvable oxides for biological applications” (DelSiTech Oy, priority 1996, dated 2008)

Experiment: Toremifene loaded silica-xerogel discs in vivo: implant remaining and 3H-toremifene activity
Design: species or system mice (C57B1)
Conditions: after 42 days, subcutaneous silica-xerogel disc, mice
Procedure: Sixty female mice (C57B1, Denmark) with the average weight of about 19.6 g (SD 1.2) were studied. The animals were divided into two experimental groups (5 mice in each group): a toremifene treated silica-xerogel group and untreated silica-xerogel group. The animals were treated for 7, 14, 21, 28, 35, and 42 days. The ^3H-toremifene dose was about 80 μCi/kg (0.8 μCi/implant); toremifene citrate, 350 mg/kg (appr. 3.4 mg/implant); and silica gel, about 1.53 g/kg body weight. A toremifene loaded silica-xerogel disc was implanted subcutaneously an each side of the backbone.
After a predetermined period of time the silica-xerogel discs on the left side of the backbone were explanted together with the surrounding tissue, fixed in 70% ethanol, and embedded in Technovit (Algol). Sections of 20 μm were stained with toluidine blue. Samples of liver, kidney, and lymph node were fixed in buffered formaldehyde (Merck) and embedded in paraffin. Sections of 6 μm were stained with hematoxylin eosin. All tissue samples were evaluated using light microscopy. […] Their weights were determined and the percentage of implant remaining at each point was calculated.
To determine the amount of toremifene remaining in the implants, the dried discs were dissolved in 0.1 N NaOH and the activity was measured in a liquid scintillation counter (model 81000, LKB-Wallac, Turku, Finland). […]

In the case of ^3H-toremifene, the “amount remaining in the implant” value was “about 16%”.
